Target: tabun (GA)-inhibited human recombinant AChE (HssAChE) (Homo sapiens, UniProt P22303)
Test: Reactivation of tabun (GA)-inhibited HssAChE, Ellman protocol
Conditions: 15 min incubation, pH 7.4, triplicate

ON=Cc1cc[n+](CCCC[n+]2ccccn2)cc1 [Compound 11, 4-Hydroxyiminomethyl-1,1′-(but-1,4-diyl)-1-pyridinium-1′-pyridazinium dibromide]
GA-HssAChE Reactivation (% ± SD) (reactivator 10 μM): 4.1 ± 0.2% | GA-HssAChE Reactivation (% ± SD) (reactivator 100 μM): 1.5 ± 0.5%

ON=Cc1cc[n+](CCCC[n+]2cccc3ccccc32)cc1 [Compound 12, 4-Hydroxyiminomethyl-1,1′-(but-1,4-diyl)-1-pyridinium-1′-quinolinium dibromide]
GA-HssAChE Reactivation (% ± SD) (reactivator 10 μM): 3.1 ± 0.3% | GA-HssAChE Reactivation (% ± SD) (reactivator 100 μM): 0.6 ± 0.4%

ON=Cc1cc[n+](CCCC[n+]2ccc3ccccc3c2)cc1 [Compound 13, 4-Hydroxyiminomethyl-1,1′-(but-1,4-diyl)-1-pyridinium-1′-isoquinolinium dibromide]
GA-HssAChE Reactivation (% ± SD) (reactivator 10 μM): 6.0 ± 0.2% | GA-HssAChE Reactivation (% ± SD) (reactivator 100 μM): 3.5 ± 0.7%

ON=Cc1cc[n+](CCCC[n+]2ccc(Cc3ccccc3)cc2)cc1.[Br-].[Br-] [Compound 17, 4-Hydroxyiminomethyl-4′-phenylmethyl-1,1′-(but-1,4-diyl)-bispyridinium dibromide]
GA-HssAChE Reactivation (% ± SD) (reactivator 10 μM): 1.9 ± 0.6% | GA-HssAChE Reactivation (% ± SD) (reactivator 100 μM): 0.3 ± 0.2%

CC(=O)c1cc[n+](CCCC[n+]2ccc(C=NO)cc2)cc1.[Br-].[Br-] [Compound 19, 4-Hydroxyiminomethyl-4′-methylcarbonyl-1,1′-(but-1,4-diyl)-bispyridinium dibromide]
GA-HssAChE Reactivation (% ± SD) (reactivator 10 μM): 3.1 ± 0.1% | GA-HssAChE Reactivation (% ± SD) (reactivator 100 μM): 1.7 ± 0.3%

CCOC(=O)c1cc[n+](CCCC[n+]2ccc(C=NO)cc2)cc1 [Compound 21, 4-Ethylcarboxy-4′-hydroxyiminomethyl-1,1′-(but-1,4-diyl)-bispyridinium dibromide]
GA-HssAChE Reactivation (% ± SD) (reactivator 10 μM): 4.1 ± 0.2% | GA-HssAChE Reactivation (% ± SD) (reactivator 100 μM): 1.7 ± 0.5%

NC(=O)c1cc[n+](CCCC[n+]2ccc(C=NO)cc2)cc1C(N)=O.[Br-].[Br-] [Compound 24, 3,4-Dicarbamoyl-4′-hydroxyiminomethyl-1,1′-(but-1,4-diyl)-bispyridinium dibromide]
GA-HssAChE Reactivation (% ± SD) (reactivator 10 μM): 4.5 ± 0.2% | GA-HssAChE Reactivation (% ± SD) (reactivator 100 μM): 1.8 ± 0.6%

From publication PMC6225275 (Molecules : A Journal of Synthetic Chemistry and Natural …, 2018)
